# How the values were obtained:
# The chains behind the UniProt entries cited, without tags or fusion partners. Residues count along the entry.
# UniProt P23219, 24-599: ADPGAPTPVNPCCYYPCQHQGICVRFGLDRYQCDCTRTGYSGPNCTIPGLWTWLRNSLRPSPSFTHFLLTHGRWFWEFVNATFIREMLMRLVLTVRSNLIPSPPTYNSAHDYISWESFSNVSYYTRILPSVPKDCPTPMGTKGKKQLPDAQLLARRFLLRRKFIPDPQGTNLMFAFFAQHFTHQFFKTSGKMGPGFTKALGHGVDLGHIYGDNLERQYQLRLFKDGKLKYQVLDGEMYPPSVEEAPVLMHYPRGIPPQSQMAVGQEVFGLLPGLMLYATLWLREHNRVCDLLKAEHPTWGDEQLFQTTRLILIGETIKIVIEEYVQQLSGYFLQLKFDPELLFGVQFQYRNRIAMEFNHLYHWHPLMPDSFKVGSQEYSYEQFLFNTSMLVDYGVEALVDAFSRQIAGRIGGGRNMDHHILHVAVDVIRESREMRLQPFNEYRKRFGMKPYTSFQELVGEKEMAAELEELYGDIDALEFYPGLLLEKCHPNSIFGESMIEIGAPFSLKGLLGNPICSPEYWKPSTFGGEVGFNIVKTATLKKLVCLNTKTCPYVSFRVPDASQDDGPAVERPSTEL
# [1] = stress test of pure catechin under varying conditions; format: physicochemical
# Excerpt: […]. However, it can be preserved by a number of preservatives, including but not limited to stannous chloride (SnCl2), sodium bisulfate/metabisulfite (SBS), and other preservatives.
# [2] = in vivo; cited from earlier work
# COX-1 = COX-1 (Homo sapiens, UniProt P23219); assay: COX-1 enzymatic inhibition; format: biochemical
substance,measurement,setting,value
catechin,stability under basic conditions or when exposed to metal ions,[1]; basic conditions or metal ions such as Fe3+,not
same,stability under neutral conditions,[1]; neutral conditions at both 4° C. and 40° C.,stable
same,stability under weakly basic conditions,[1]; pH=7.5,decomposes
same,half-life,[2],2 h
same,IC50 for COX-1,COX-1,0.11 μg/mL/unit of enzyme
